Values quoted from earlier work in patent US8211015B2 (priority 2006, dated 2012).

Details: non-obstetric population

CCC(=O)N(c1ccccc1)C1(C(=O)OC)CCN(CCC(=O)OC)CC1
clearance: 40 mL/min/kg | duration of action independent of infusion duration (context-sensitive half-life): 3 min

Some compounds may have been tested in ways that are not shown here.
